The text below walks through data of patent US7176281B2 (priority 2003, dated 2007).

pIC50: −log10 of the molar value.

For this assay, the target named is T1, Group IIA purified human synovial sPLA2 (Homo sapiens, UniProt P14555).
T1 construct: purchased Cayman, USA
T1 sequence (P14555 21-144): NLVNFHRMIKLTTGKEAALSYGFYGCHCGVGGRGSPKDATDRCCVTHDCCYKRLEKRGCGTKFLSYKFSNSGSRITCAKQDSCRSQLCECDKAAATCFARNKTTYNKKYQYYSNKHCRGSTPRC
The experiment in a line: In vitro inhibition of purified human synovial sPLA2, 3H-labelled E. coli membranes. The class given is biochemical. The settings on record: purified human synovial sPLA2 (Cayman).

As a reminder, the pIC50 is −log10 of the IC50, conventionally taken in molar units. Take `CCc1c(C(=O)C(N)=O)c2c(OCC(=O)O)cccc2n1Cc1ccccc1` [LY315920, reference compound]: the pIC50 was 5.64.
